Experimental data reported in patent publication US8722910B2, “Diyne compositions” (Evolva AG, priority 2009, dated 2014).

System: S. cerevisiae
Assay: Fatty acid competition (antagonism) on agar plates
Conditions: 28 μg/ml fatty acid in agar

## O=C([O-])CCCCCCC/C=C\C#CC#Cc1ccco1.[Na+] [Compound V″, sodium (Z)-14-(furan-2-yl)tetradeca-9-en-11,13-diynoate]
  effect of oleic acid / stearic acid on susceptibility: oleic acid (but not stearic acid) had an antagonistic effect
